# Results from patent US9598424B2 (Takeda Pharmaceutical Company Limited, priority 2014, dated 2017).
# Sequences of proteins named here, by UniProt entry; tags and fusion partners are left off.
# UniProt Q9UHD2, whole entry: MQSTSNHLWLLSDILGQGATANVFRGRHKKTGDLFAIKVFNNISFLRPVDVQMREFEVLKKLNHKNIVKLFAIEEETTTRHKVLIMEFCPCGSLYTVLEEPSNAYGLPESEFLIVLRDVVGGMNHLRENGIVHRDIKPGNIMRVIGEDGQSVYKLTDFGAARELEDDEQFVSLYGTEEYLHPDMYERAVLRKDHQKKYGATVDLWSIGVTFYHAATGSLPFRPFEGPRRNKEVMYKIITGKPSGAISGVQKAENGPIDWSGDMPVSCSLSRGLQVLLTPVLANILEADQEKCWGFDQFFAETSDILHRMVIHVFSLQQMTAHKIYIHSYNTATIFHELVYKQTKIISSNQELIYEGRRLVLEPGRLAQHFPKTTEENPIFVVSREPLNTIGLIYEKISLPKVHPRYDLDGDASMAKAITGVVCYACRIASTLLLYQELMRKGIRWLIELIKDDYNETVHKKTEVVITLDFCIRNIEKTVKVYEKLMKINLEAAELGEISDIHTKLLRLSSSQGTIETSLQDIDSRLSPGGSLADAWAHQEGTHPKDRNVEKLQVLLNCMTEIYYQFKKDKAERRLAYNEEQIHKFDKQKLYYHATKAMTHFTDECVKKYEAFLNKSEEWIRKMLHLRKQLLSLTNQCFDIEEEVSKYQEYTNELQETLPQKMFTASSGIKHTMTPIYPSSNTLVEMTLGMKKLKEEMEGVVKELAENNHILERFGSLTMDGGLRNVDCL
# Legend:
# Full length human TBK1 = Full length human TBK1 (Homo sapiens, UniProt Q9UHD2); assay: Inhibition of TBK1 Enzyme (Caliper microfluidic assay); conditions: 25 μM ATP, 60 min at RT; -log(IC50), IC50 molar; tested form: TFA
# Protocol: Full length human TBK1 with an N-terminal His-tag was cloned into the pFastBacl vector and was transfected into Sf9 cells. 72 hours later the virus was harvested and amplified through two additional rounds of infections. Then 400 ml of the resulting virus stock was used to infect 10L of Sf9 cells at a density of 2×10^6 cells/ml. Cell pellets were harvested 48 hours post infection and were lysed by freeze-thaw, homogenization and sonication in binding buffer (25 mM Tris pH7.6, 1 M NaCl, 10 mM imidazole, 0.5 mM TCEP) plus 0.1% Triton X-100 and complete protease inhibitor cocktail. The lysate was spun and the supernatant was purified with a HisTrap FF crude and a Superdex 200 pg column.
# TBK1 inhibition is determined using a 384 well plate format in buffer containing 20 mM Hepes, pH 7.4, 10 mM MgCl2, 1 mM EDTA, 0.01% Brij-L23, 1 mM DTT. Each test compound is prepared in DMSO using 2.5-fold serial dilutions for 11 data points, which are added to the buffer so that each dilution contains 1% DMSO. To each well is added 2 μL of 1 μm 5FAM-DRHDSGLDSMKDE-NH2 (in buffer), 2 μL of diluted test compound (1% DMSO in buffer), and 5 μL of 3 nM TBK1 and 25 μM ATP (in buffer). The reaction mixture is incubated at RT for 60 min, and quenched by adding 20 mM Hepes, pH 7.4, 10 mM MgCl2, 1 mM EDTA, 0.01% Brij-L23, 1 mM DTT+25 mM EDTA. To quantify the fluorescent-labeled substrate and product following reaction, the test plate is loaded on a Caliper LC-3000, which measures percent of conversion by microfluidic-based separation. Corresponding IC50 values are calculated by non-linear curve fitting of the compound concentrations and percent of inhibition to the standard IC50 equation and reported as pIC50, i.e., −log(IC50), where IC50 is the molar concentration.
# TBK1 = TBK1 (Homo sapiens, UniProt Q9UHD2); assay: Inhibition of TBK1 in Cells (TLR3 driven ISRE β-lactamase reporter assay); conditions: poly IC-LMW stimulation 16 hrs; -log(EC50), EC50 molar; tested form: TFA
# Protocol: TBK1 inhibition is determined using a TLR3 driven RA1-ISRE β-lacatamase reporter assay (Life Technologies). In the assay 50,000 cells/well are plated in black clear bottom 384 well plate. Each test compound is prepared in DMSO using 2.5-fold serial dilutions for 11 data points, which are then added to the media. Cells are stimulated with 0.15 mg/ml poly IC-LMW (Invivogen) for 16 hrs. Reporter activity is detected using the LiveBLAzer-FRET B/G CCF4-AM substrate (Life Technologies) and the plate is read using the Spectramax M5 instrument. Corresponding EC50 values are calculated by non-linear curve fitting of the compound concentrations and percent of inhibition to the standard EC50 equation and reported as pEC50, i.e., −log(EC50), where EC50 is the molar concentration.
TBK1 Inhibition (pIC50) (Full length human TBK1),Inhibition of TBK1 in cells pEC50 (EC) (TBK1),SMILES
7.4,5.90,O=C(N[C@H]1CCCC[C@H]1O)c1nc(-c2cn3cc(NC(=O)C4CC4)nc3cn2)cs1
7.3,5.70,O=C(N[C@H]1CCCOC1)c1nc(-c2cn3cc(NC(=O)C4CC4)nc3cn2)cs1
7.2,7.06,O=C(Nc1cn2cc(-c3csc(C(=O)N4CCC[C@@H]4C(F)(F)F)n3)ncc2n1)C1CC1

SMILES,TBK1 Inhibition (pIC50) (Full length human TBK1),Inhibition of TBK1 in cells pEC50 (EC) (TBK1)
O=C(N[C@H]1CCOC1)c1nc(-c2cn3cc(NC(=O)C4CC4)nc3cn2)cs1,7.1,5.50
